Amino acid sequences for entries named in this document (tags omitted). Residues count along the entry.
UniProt Q9Y490, 309-401: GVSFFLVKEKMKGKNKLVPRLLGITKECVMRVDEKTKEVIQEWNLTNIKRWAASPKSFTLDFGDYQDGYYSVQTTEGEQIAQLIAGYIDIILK

According to PMC12102759 (Protein Science : A Publication of the Protein Society, 2025):

Each sequence was assayed against TLN1 PTB (Homo sapiens, UniProt Q9Y490).
Type: binding

Compared with “FPTDERSWVYSPLHYS L13G (FPTDERSWVYSPGHYS)”, “FPTDERSWVYSPLHYS L13H (FPTDERSWVYSPHHYS)” is lower in “DMS-derived PSSM value of the single-substitution variant” value (“DMS-derived PSSM value” for short): 0.02955 for the first, 0.004675 for the second.

First: FPTDERSWVYSPLHYS L13I (FPTDERSWVYSPIHYS)
Second: FPTDERSWVYSPLHYS L13K (FPTDERSWVYSPKHYS)
The “DMS-derived PSSM value” value of the first is higher: 0.1109 for the first, 0.002338 for the second.

Going from FPTDERSWVYSPLHYS L13L to “FPTDERSWVYSPLHYS L13M (FPTDERSWVYSPMHYS)”, the “DMS-derived PSSM value” value rises from 0.02907 to 0.1321.

Compared with “FPTDERSWVYSPLHYS L13N (FPTDERSWVYSPNHYS)”, “FPTDERSWVYSPLHYS L13P (FPTDERSWVYSPPHYS)” is lower in “DMS-derived PSSM value” value: 0.01059 for the first, 0.002338 for the second.

Going from “FPTDERSWVYSPLHYS L13Q (FPTDERSWVYSPQHYS)” to “FPTDERSWVYSPLHYS L13R (FPTDERSWVYSPRHYS)”, the “DMS-derived PSSM value” value falls from 0.01142 to 0.004675.

Compared with “FPTDERSWVYSPLHYS L13S (FPTDERSWVYSPSHYS)”, “FPTDERSWVYSPLHYS L13T (FPTDERSWVYSPTHYS)” is lower in “DMS-derived PSSM value” value: 0.04078 for the first, 0.007563 for the second.

Compared with “FPTDERSWVYSPLHYS L13V (FPTDERSWVYSPVHYS)”, “FPTDERSWVYSPLHYS L13W (FPTDERSWVYSPWHYS)” is higher in “DMS-derived PSSM value” value: 0.04234 for the first, 0.3931 for the second.

Compared with “FPTDERSWVYSPLHYS L13Y (FPTDERSWVYSPYHYS)”, FPTDERSWVYSPLHYS P2A (FATDERSWVYSPLHYS) is lower in “DMS-derived PSSM value” value: 0.09699 for the first, 0.01047 for the second.

First: FPTDERSWVYSPLHYS P2D (FDTDERSWVYSPLHYS)
Second: FPTDERSWVYSPLHYS P2E (FETDERSWVYSPLHYS)
The “DMS-derived PSSM value” value of the first is higher: 0.1938 for the first, 0.04643 for the second.

Going from FPTDERSWVYSPLHYS P2F (FFTDERSWVYSPLHYS) to FPTDERSWVYSPLHYS P2G (FGTDERSWVYSPLHYS), the “DMS-derived PSSM value” value rises from 0.006141 to 0.02423.

Compared with FPTDERSWVYSPLHYS P2H (FHTDERSWVYSPLHYS), FPTDERSWVYSPLHYS P2I (FITDERSWVYSPLHYS) is lower in “DMS-derived PSSM value” value: 0.006141 for the first, 0.004328 for the second.

Going from FPTDERSWVYSPLHYS P2K (FKTDERSWVYSPLHYS) to FPTDERSWVYSPLHYS P2L (FLTDERSWVYSPLHYS), the “DMS-derived PSSM value” value rises from 0.002675 to 0.2108.

Compared with FPTDERSWVYSPLHYS P2M (FMTDERSWVYSPLHYS), FPTDERSWVYSPLHYS P2N (FNTDERSWVYSPLHYS) is lower in “DMS-derived PSSM value” value: 0.07329 for the first, 0.0467 for the second.

First: FPTDERSWVYSPLHYS P2P
Second: FPTDERSWVYSPLHYS P2Q (FQTDERSWVYSPLHYS)
The “DMS-derived PSSM value” value of the first is higher: 0.03327 for the first, 0.02038 for the second.

Compared with FPTDERSWVYSPLHYS P2R (FRTDERSWVYSPLHYS), FPTDERSWVYSPLHYS P2S (FSTDERSWVYSPLHYS) is higher in “DMS-derived PSSM value” value: 0.01393 for the first, 0.07182 for the second.

First: FPTDERSWVYSPLHYS P2T (FTTDERSWVYSPLHYS)
Second: FPTDERSWVYSPLHYS P2V (FVTDERSWVYSPLHYS)
The “DMS-derived PSSM value” value of the first is lower: 0.04429 for the first, 0.1455 for the second.

First: FPTDERSWVYSPLHYS P2W (FWTDERSWVYSPLHYS)
Second: FPTDERSWVYSPLHYS P2Y (FYTDERSWVYSPLHYS)
The “DMS-derived PSSM value” value of the first is higher: 0.02832 for the first, 0.01746 for the second.

Going from “FPTDERSWVYSPLHYS P12A (FPTDERSWVYSALHYS)” to “FPTDERSWVYSPLHYS P12D (FPTDERSWVYSDLHYS)”, the “DMS-derived PSSM value” value falls from 0.1318 to 0.005137.

Going from “FPTDERSWVYSPLHYS P12E (FPTDERSWVYSELHYS)” to “FPTDERSWVYSPLHYS P12F (FPTDERSWVYSFLHYS)”, the “DMS-derived PSSM value” value falls from 0.02709 to 0.01515.

First: FPTDERSWVYSPLHYS P12G (FPTDERSWVYSGLHYS)
Second: FPTDERSWVYSPLHYS P12H (FPTDERSWVYSHLHYS)
The “DMS-derived PSSM value” value of the first is higher: 0.1798 for the first, 0.01208 for the second.

First: FPTDERSWVYSPLHYS P12I (FPTDERSWVYSILHYS)
Second: FPTDERSWVYSPLHYS P12K (FPTDERSWVYSKLHYS)
The “DMS-derived PSSM value” value of the first is higher: 0.06286 for the first, 0.01148 for the second.

Going from “FPTDERSWVYSPLHYS P12L (FPTDERSWVYSLLHYS)” to “FPTDERSWVYSPLHYS P12M (FPTDERSWVYSMLHYS)”, the “DMS-derived PSSM value” value falls from 0.1462 to 0.01521.

Compared with “FPTDERSWVYSPLHYS P12N (FPTDERSWVYSNLHYS)”, FPTDERSWVYSPLHYS P12P is lower in “DMS-derived PSSM value” value: 0.03853 for the first, 0.02716 for the second.

Compared with “FPTDERSWVYSPLHYS P12Q (FPTDERSWVYSQLHYS)”, “FPTDERSWVYSPLHYS P12R (FPTDERSWVYSRLHYS)” is lower in “DMS-derived PSSM value” value: 0.1471 for the first, 0.06553 for the second.

Compared with “FPTDERSWVYSPLHYS P12S (FPTDERSWVYSSLHYS)”, “FPTDERSWVYSPLHYS P12T (FPTDERSWVYSTLHYS)” is higher in “DMS-derived PSSM value” value: 0.02523 for the first, 0.03724 for the second.

First: FPTDERSWVYSPLHYS P12V (FPTDERSWVYSVLHYS)
Second: FPTDERSWVYSPLHYS P12W (FPTDERSWVYSWLHYS)
The “DMS-derived PSSM value” value of the first is lower: 0.0194 for the first, 0.02228 for the second.

Compared with “FPTDERSWVYSPLHYS P12Y (FPTDERSWVYSYLHYS)”, FPTDERSWVYSPLHYS R6A (FPTDEASWVYSPLHYS) is higher in “DMS-derived PSSM value” value: 0.0108 for the first, 0.2635 for the second.

Going from FPTDERSWVYSPLHYS R6D (FPTDEDSWVYSPLHYS) to FPTDERSWVYSPLHYS R6E (FPTDEESWVYSPLHYS), the “DMS-derived PSSM value” value falls from 0.04985 to 0.

First: FPTDERSWVYSPLHYS R6F (FPTDEFSWVYSPLHYS)
Second: FPTDERSWVYSPLHYS R6G (FPTDEGSWVYSPLHYS)
The “DMS-derived PSSM value” value of the first is lower: 0 for the first, 0.00648 for the second.

Going from FPTDERSWVYSPLHYS R6H (FPTDEHSWVYSPLHYS) to FPTDERSWVYSPLHYS R6I (FPTDEISWVYSPLHYS), the “DMS-derived PSSM value” value rises from 0.00412 to 0.0751.

First: FPTDERSWVYSPLHYS R6K (FPTDEKSWVYSPLHYS)
Second: FPTDERSWVYSPLHYS R6L (FPTDELSWVYSPLHYS)
The “DMS-derived PSSM value” value of the first is lower: 0.01009 for the first, 0.01712 for the second.

Going from FPTDERSWVYSPLHYS R6M (FPTDEMSWVYSPLHYS) to FPTDERSWVYSPLHYS R6N (FPTDENSWVYSPLHYS), the “DMS-derived PSSM value” value falls from 0.01536 to 0.009144.

First: FPTDERSWVYSPLHYS R6P (FPTDEPSWVYSPLHYS)
Second: FPTDERSWVYSPLHYS R6Q (FPTDEQSWVYSPLHYS)
The “DMS-derived PSSM value” value of the first is higher: 0.02335 for the first, 0.0108 for the second.

FPTDERSWVYSPLHYS R6R was tested, and the “DMS-derived PSSM value” value was 0.01427.
